One compound from US20230000842A1, “METHODS OF TREATING CARTILAGE DISORDERS THROUGH INHIBITION OF CLK AND DYRK” (SAMUMED, LLC, priority 2019, published 2023) can be followed below.

The chains behind the UniProt entries cited, without tags or fusion partners.
UniProt P49760, whole entry: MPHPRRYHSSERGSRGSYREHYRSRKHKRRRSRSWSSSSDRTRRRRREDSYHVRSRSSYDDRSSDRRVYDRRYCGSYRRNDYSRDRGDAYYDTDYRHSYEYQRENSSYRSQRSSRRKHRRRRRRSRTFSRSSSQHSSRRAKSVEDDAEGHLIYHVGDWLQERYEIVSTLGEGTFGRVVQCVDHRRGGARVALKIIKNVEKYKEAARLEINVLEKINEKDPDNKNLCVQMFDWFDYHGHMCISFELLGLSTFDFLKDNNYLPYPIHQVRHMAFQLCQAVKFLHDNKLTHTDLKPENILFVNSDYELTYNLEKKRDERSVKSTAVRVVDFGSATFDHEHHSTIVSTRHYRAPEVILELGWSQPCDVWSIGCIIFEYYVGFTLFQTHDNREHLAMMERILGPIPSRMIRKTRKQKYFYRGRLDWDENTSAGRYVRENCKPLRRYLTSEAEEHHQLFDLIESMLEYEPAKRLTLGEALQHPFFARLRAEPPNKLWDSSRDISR

Molecules are shown by their SMILES.

The target in the assay is CLK2 kinase (Homo sapiens, UniProt P49760). Put plainly: CLK2 kinase activity assay (Z-lyte FRET).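 Further: FRET read-out as coumarin to fluorescein emission ratio, unphosphorylated peptide as 0% and phosphorylated peptide as 100% controls, duplicate reactions, non-linear regression fit of dose-response curves.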 In kind it is biochemical. The note with it: Z-lyte Ser/Thr 6 peptide, 60 μM ATP, 1 h at room temperature.

Broadly, the EC50 is the concentration at which the effect is half-maximal. Read a low EC50 as a more potent agent. As for `CN1CCN(c2cc(C(=O)Nc3cc4cc(-c5cnn(C)c5)ccc4cn3)ccn2)CC1` [compound 545], the concentration for a half-maximal effect (EC50) was found to be 1 nM.
